The nature of this series: xn = mol fraction of the nth substance listed. The following applies: 298.15 K, 101 kPa.

SMILES strings stand for the structures. ± gives the uncertainty stated by the source.

As a reminder, the viscosity is the internal friction of a fluid under shear. Read a low viscosity as easy flow.

For the compound `OCCOCCOCCOCCO` + CCCC[n+]1ccn(C)c1.F[B-](F)(F)F, the viscosity is 58 ± 1.4 mPa·s (x1 = 0.5) and 47 ± 1.1 mPa·s (x1 = 1). In the case of `OCCOCCOCCOCCO` + CCCC[n+]1ccn(C)c1.F[P-](F)(F)(F)(F)F, the viscosity by setting is: (x1 = 0.5) 123.2 ± 4.7 mPa·s; (x1 = 1) 47.2 ± 1.1 mPa·s. `OCCOCCOCCOCCO` + CCCC[n+]1ccn(C)c1.O=C([O-])C(F)(F)F displayed a viscosity (x1 = 1) of 46.8 ± 1.1 mPa·s. For `OCCOCCOCCOCCO` + CCCC[n+]1ccn(C)c1.O=S(=O)([N-]S(=O)(=O)C(F)(F)F)C(F)(F)F, the viscosity runs as follows: (x1 = 0.5) 46.4 ± 1.1 mPa·s; (x1 = 1) 46.3 ± 1.1 mPa·s.

The values are drawn from the CheMixHub ionic liquid set.
